Test results reported in PMC4222909 (PLoS ONE, 2014).

Legend:
[1] = biological target: T1, Zn(II)Har (heme associated regulator) (Porphyromonas gingivalis, UniProt B2RKX7); experiment: biochemical
T1 construct: gene PGN_1503

[2] = biological target: T2, Zn(II)Har (heme associated regulator) (Porphyromonas gingivalis, UniProt B2RKX7, C97A); experiment: biochemical
T2 construct: gene PGN_1503

For C=CC1=C(C)C2=Cc3c(C=C)c(C)c4[n]3[Fe]([Cl])[n]3c(c(C)c(CCC(=O)O)c3=CC3=NC(=C4)C(C)=C3CCC(=O)O)=CC1=N2 [hemin], the Kd [1] was 230 ± 120 nM and the Kd [2] was 1000 ± 370 nM.
